Test results as given in PubChem BioAssay AID2288 (National Center for Advancing Translational Sciences (NCATS), 2010).
“And” between values parts separate entries of the source, which are not always exact repeats. Identical values can stand only once. This is a selection; strong and weak results do not stand in their true shares. Some results for these compounds are left out of this collection, so the calls shown say nothing about other tests. The source made the active and inactive calls. Calls follow the shape of the dose curve; as a rule, active = well fitted curve in the direction sought with a large enough effect; inconclusive = small, poorly fitted or top-dose-only effect, or another doubt; inactive = no such curve, though single readings can be large or run the other way.

Assay: qHTS Assay for Modulators of miRNAs and/orActivators of miR-21;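 also: % of control where 0% means no effect; miR-21 action dims this reporter so a rising signal means less miR-21 action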
Conditions: HeLa miR-21 FLuc reporter, luciferase, 48 h; at 38.3 µM (top of the series)
For `COc1cc(C(=O)NCC2(N(C)C)CCCCC2)c([N+](=O)[O-])cc1OC`, the activity change, positive = activation was inactive: 0.896%.
With `CN(C)C1(CNC(=O)c2ccc(Br)cc2)CCCCC1` the activity change, positive = activation was inactive: -7.13%.
For `O=C(NCC1(N2CCCCC2)CCCCC1)c1cccc(Cl)c1`, the activity change, positive = activation was inactive: 3.7%.
For `COc1ccc(Cl)cc1C(=O)NCC1(N(C)C)CCCCC1`, the activity change, positive = activation was inactive: -0.86%.
In the case of `COc1cccc(C(=O)NCC2(N3CCCCC3)CCCCC2)c1`, the activity change, positive = activation is reported as inactive: -3.93%.
With `COc1ccc(C(=O)NCC2(N(C)C)CCCCC2)cc1Cl` the activity change, positive = activation was inactive: 0.521%.
With `CC(C)COc1ccc(C(=O)NCC2(N(C)C)CCCCC2)cc1` the activity change, positive = activation was inactive: -1.88%.
With `COc1cccc(C(=O)NCC2(N3CCOCC3)CCCCC2)c1` the activity change, positive = activation was inactive: -5.64%.
In the case of `O=C(OC1CN2CCC1CC2)C(CO)(c1ccccc1)c1ccccc1` (centres undefined), the activity change, positive = activation is reported as inactive: -5.05%.
In the case of `CC(C)Oc1ccc(C(=O)NCC2(N(C)C)CCCCC2)cc1`, the activity change, positive = activation is reported as inactive: -7.24% and inactive: -1.8%.
With `CN(C)c1cccc(C(=O)NCC2(N(C)C)CCCCC2)c1` the activity change, positive = activation was inactive: -13.6%.
In the case of `COc1ccc(Br)c(C(=O)NCC2(N3CCCCC3)CCCCC2)c1`, the activity change, positive = activation is reported as inactive: 2.03%.
For `Cc1cccc(C(=O)NCC2(N(C)C)CCCCC2)c1`, the activity change, positive = activation was inactive: -6.8%.
In the case of `COc1cc(C(=O)NCC2(N(C)C)CCCCC2)cc(OC)c1OC`, the activity change, positive = activation is reported as inactive: -4.68%.
With `CN1[C@@H]2CC[C@H]1CC(OC(=O)C(O)(c1ccccc1)c1ccccc1)C2` (some centres undefined) the activity change, positive = activation was inactive: -0.791%.
For `O=C(NCC1(N2CCCCC2)CCCCC1)c1cc([N+](=O)[O-])ccc1Cl`, the activity change, positive = activation was inactive: -0.832%.
For `Cc1ccc(C(=O)NCC2(N3CCCCC3)CCCCC2)cc1`, the activity change, positive = activation was inactive: 7.12%.
With `CN(C)C1(CNC(=O)c2ccccc2F)CCCCC1` the activity change, positive = activation was inactive: 2.55%.
For `COc1cc(SC)ccc1C(=O)NCC1(N(C)C)CCCCC1`, the activity change, positive = activation was inactive: -4.6%.
In the case of `CCN(CC)CC(C)C(C)OC(=O)C(O)(c1ccccc1)c1ccccc1` (centres undefined), the activity change, positive = activation is reported as inactive: 5.51%.
In the case of `CN(C)C1(CNC(=O)c2cccc(Cl)c2)CCCCC1`, the activity change, positive = activation is reported as inactive: -3.91%.
With `CC(C)N1C(=O)CC2(CCN(CCOC(=O)C(O)(c3ccccc3)c3ccccc3)CC2)C1=O` the activity change, positive = activation was inactive: 1.52%.
For `CCCCOc1ccccc1C(=O)NCC1(N(C)C)CCCCC1`, the activity change, positive = activation was inactive: 2.53%.
In the case of `CN(C)C1CCCC1OC(=O)C(O)(c1ccccc1)c1ccccc1` (centres undefined), the activity change, positive = activation is reported as inactive: -1.3%.
For `CN(C)c1ccc(C(=O)NCC2(N(C)C)CCCCC2)cc1`, the activity change, positive = activation was inactive: -8.67%.
With `CN(C)C1(CNC(=O)c2ccccc2[N+](=O)[O-])CCCCC1` the activity change, positive = activation was inactive: -2.06%.
With `Cc1ccccc1C(=O)NCC1(N2CCCCC2)CCCCC1` the activity change, positive = activation was inactive: -5.84%.
For `CCOc1cccc(C(=O)NCC2(N(C)C)CCCCC2)c1`, the activity change, positive = activation was inactive: -3.49%.
For `COc1ccc(C(=O)NCC2(N(C)C)CCCCC2)cc1`, the activity change, positive = activation was inactive: -0.237%.
With `O=C(NCC1(N2CCCCC2)CCCCC1)c1cccc(Br)c1` the activity change, positive = activation was inactive: 1.92%.
With `Cc1cc(C(=O)NCC2(N3CCCCC3)CCCCC2)ccc1[N+](=O)[O-]` the activity change, positive = activation was inactive: 5.55%.
With `CCN1CCCC(OC(=O)C2(O)c3ccccc3C=Cc3ccccc32)C1` (centres undefined) the activity change, positive = activation was inactive: -8.54%.
With `O=C(NCC1(N2CCCCC2)CCCCC1)c1cc(F)c(F)cc1Cl` the activity change, positive = activation was inactive: -5.08%.
With `C=CCN1CCN(CCOC(=O)C(O)(c2ccccc2)c2ccccc2)CC1` the activity change, positive = activation was inactive: 0.53%.
